Experiments:
Adenosine receptor A2a = Adenosine receptor A2a (Homo sapiens, UniProt P29274); test: Displacement of [3H]NECA from human cloned adenosine A2a receptor expressed in CHO cells; format: cell-based
In short: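 hA2A-CHO membranes, prepared by two-step centrifugation, were incubated with 30 nM [3H]NECA, 50 μg protein and graded compound under the A1 binding conditions. Nonspecific binding with 100 μM R-PIA.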

Protein sequences, listed by entry. Tags and fused reporters are not part of them.
UniProt P30542, whole entry: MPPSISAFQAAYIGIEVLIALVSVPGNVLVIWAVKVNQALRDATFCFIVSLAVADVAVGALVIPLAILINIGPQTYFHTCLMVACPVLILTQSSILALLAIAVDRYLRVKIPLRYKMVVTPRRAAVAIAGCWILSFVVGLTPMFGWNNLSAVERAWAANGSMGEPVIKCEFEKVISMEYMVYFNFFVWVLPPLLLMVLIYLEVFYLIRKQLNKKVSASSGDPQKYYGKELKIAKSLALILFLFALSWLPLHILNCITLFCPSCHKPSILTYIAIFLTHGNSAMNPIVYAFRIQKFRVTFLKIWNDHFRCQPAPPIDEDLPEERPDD

Adenosine receptor A1 = Adenosine receptor A1 (Homo sapiens, UniProt P30542); test: Displacement of [3H]CCPA from human cloned adenosine A1 receptor expressed in CHO cells; format: cell-based
In short: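 CHO membranes with hA1 receptor, from 1000g 4 min spin then 100000g 30 min. Incubated 3 h at 25 °C with 1 nM [3H]CCPA, 0.2 U/mL adenosine deaminase, 20 μg protein in 50 mM Tris/HCl pH 7.4 and graded compound. Nonspecific binding with 1 mM theophylline.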

## Nc1nc2c(cnn2CCc2ccccc2)c2nc(-c3ccc(Cl)cc3)nn12
Adenosine receptor A2a
  Ki: 5.97 µM
Adenosine receptor A1
  Ki: > 100 µM
